Measurements: ChEMBL document CHEMBL3400069, “The amide linker in nonpeptide neurotensin receptor ligands plays a key role in calcium signaling at the neurotensin receptor type 2” (Bioorg Med Chem Lett, 2015)
Activity calls are given as the source filed them. The calls are words filed in the database; no cut-off is given here.

Amino acid sequences for entries named in this document (tags omitted).
UniProt P20789, whole entry: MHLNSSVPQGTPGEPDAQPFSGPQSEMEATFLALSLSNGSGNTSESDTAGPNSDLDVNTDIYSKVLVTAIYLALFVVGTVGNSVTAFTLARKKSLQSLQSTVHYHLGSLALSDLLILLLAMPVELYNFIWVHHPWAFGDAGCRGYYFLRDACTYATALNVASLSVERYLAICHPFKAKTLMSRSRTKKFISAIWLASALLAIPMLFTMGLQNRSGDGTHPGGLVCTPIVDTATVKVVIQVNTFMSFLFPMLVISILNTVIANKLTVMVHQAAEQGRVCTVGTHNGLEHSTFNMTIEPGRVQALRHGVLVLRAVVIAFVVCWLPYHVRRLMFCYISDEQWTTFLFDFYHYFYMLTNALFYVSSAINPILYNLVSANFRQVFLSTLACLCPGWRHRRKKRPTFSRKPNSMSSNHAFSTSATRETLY

Assays:
[1] = molecular target: Neurotensin receptor type 1 (Rattus norvegicus) (UniProt P20789); experiment: Antagonist activity at rat NTS1 overexpressed in CHO-k1 cells assessed as blockade of neurotensin-mediated calcium mobilization after 15 mins by FLIPR assay; format: functional, cell-based
[2] = molecular target: T1, Neurotensin receptor type 2 (Rattus norvegicus) (UniProt Q63384); details: CHO-K1
T1 sequence (whole entry): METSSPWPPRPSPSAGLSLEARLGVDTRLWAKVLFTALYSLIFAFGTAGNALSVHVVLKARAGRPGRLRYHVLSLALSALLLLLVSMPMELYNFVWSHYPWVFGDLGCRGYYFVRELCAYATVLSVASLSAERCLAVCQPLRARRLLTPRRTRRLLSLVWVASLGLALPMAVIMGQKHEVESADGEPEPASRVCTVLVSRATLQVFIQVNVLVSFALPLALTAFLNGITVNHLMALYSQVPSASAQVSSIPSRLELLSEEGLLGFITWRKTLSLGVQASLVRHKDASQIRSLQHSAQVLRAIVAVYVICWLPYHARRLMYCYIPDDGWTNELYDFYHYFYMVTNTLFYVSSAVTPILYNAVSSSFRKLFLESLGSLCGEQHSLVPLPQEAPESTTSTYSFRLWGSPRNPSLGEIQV

## COc1cccc(OC)c1-c1cc(NC(=O)C2(C(=O)O)CCCCC2)nn1-c1cccc2ccccc12
[1]
  Ke: 4.81 µM
[2]
  Ke: 181 nM

## COc1cccc(OC)c1-c1cc(NC(=O)C2(C(=O)O)CCCCC2)nn1-c1ccnc2cc(Cl)ccc12
[1]
  Ke: 4.39 µM
[2]
  Ke: 3050 nM

## COc1cccc(OC)c1-c1cc(CN[C@H](C(=O)O)C2CCCCC2)nn1-c1ccnc2cc(Cl)ccc12
[1]
  Ke: inactive
[2]
  Ke: inactive
